Data on 46 compounds can be found in PubChem BioAssay AID651702 (NMMLSC, 2012).

The entries are a selection whose mix differs from that of the whole data set. Activity calls are given as the source filed them.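 Rule for the calls: active = inhibition above about 55% (limit read from the data); inconclusive = no clear call, values can overlap the other calls; inactive = the rest.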

A short description of the assay: LAMP-1 surface exposure blockers, TALL-104 cells – cell-based, flow cytometry, MLPCN library, primary screen (AID 651702). As to conditions: TALL-104 LAMP-1 surface exposure, at 10 µM, hits give high values, cells stimulated with thapsigargin and PMA. In general terms: Flow cytometry measures light scatter and fluorescence of single cells or particles in a stream.
In the case of `CCN(CC)CCCOC(=O)C(O)(c1ccccc1)C1CCCCC1` (stereo unspecified), the inhibition (commonly the change of the read-out against control, counted positive when it falls) was inactive: 1.2%.
Regarding `CP(=O)(Nc1ccccc1)Oc1ccc(F)cc1` (stereo unspecified), the inhibition was inactive: -10.2%.
As for `CCCCCOc1ccc(NP(C)(=O)Oc2ccc(Cl)cc2Cl)cc1` (stereo unspecified), the inhibition is inactive: 2.8%.
With `O=[N+]([O-])c1cc([N+](=O)[O-])c(OC2CCCCC2O)c([N+](=O)[O-])c1` (stereo unspecified) the figure was inactive: -1%.
Take `CCN(CC)CCCNc1ccccc1[N+](=O)[O-].O=[N+]([O-])c1cc([N+](=O)[O-])c(O)c([N+](=O)[O-])c1`: the inhibition was inactive: -11.1%.
Under `CCOC(=O)c1ccc(NP(C)(=O)Oc2ccc(F)cc2)cc1` (stereo unspecified) stands inactive: 0.5%.
In the case of `COc1ccc(OP(C)(=O)Nc2ccc(SC(F)(F)F)cc2)cc1` (stereo unspecified), the inhibition was inactive: -2.9%.
In the case of `O=[N+]([O-])c1ccc(OP2(=O)COCCO2)cc1` (stereo unspecified), the inhibition was inactive: -1.1%.
With `O=[N+]([O-])c1cc([N+](=O)[O-])c(NCC2CCS(=O)(=O)C2)c([N+](=O)[O-])c1` (stereo unspecified) the figure was inactive: -0.5%; with `Cc1cc(-c2cccc3ccccc23)c(C)cn1.O=[N+]([O-])c1cc([N+](=O)[O-])c(O)c([N+](=O)[O-])c1`, inactive: 4.8%; with `Cc1c(C(c2ccc3c(c2)OCO3)c2c(C)n(C)n(-c3ccccc3)c2=O)c(=O)n(-c2ccccc2)n1C.O=[N+]([O-])c1cc([N+](=O)[O-])c(O)c([N+](=O)[O-])c1`, inactive: 0.3%.
With `COc1ccc(OP(C)(=O)Nc2cccc(Br)c2)cc1` (stereo unspecified) the figure was inactive: -0.5%; with `CN(C)CCOC(=O)C(O)(c1ccccc1)C1CCCCC1` (stereo unspecified), inactive: -3.1%; with `COc1ccc(NP(C)(=O)Oc2ccccc2OC)cc1` (stereo unspecified), inactive: 0.8%.
With `CP(=O)(Nc1ccc2c(c1)OCCO2)Oc1ccccc1` (stereo unspecified) the figure was inactive: 0.4%; with `Cc1ccccc1NP(C)(=O)Nc1ccccc1C`, inactive: -2.3%; with `O=[N+]([O-])c1cc([N+](=O)[O-])c(C(F)(F)F)c([N+](=O)[O-])c1O`, inactive: -7.6%.
Regarding `CP(=O)(Nc1ccc(SC(F)(F)F)cc1)Oc1ccc(F)cc1` (stereo unspecified), the inhibition is inactive: -16.6%.
As to `CCOP(C)(=S)SCC(=O)NC(C)(CC)C(=O)O` (stereo unspecified), the inhibition is inactive: 3.3%.
For the compound `CC(C)(C)c1ccc(OP(C)(=O)O)cc1`, the inhibition was inactive: -0.6%.
Under `COc1ccccc1OP(C)(=O)Nc1ccccc1Br` (stereo unspecified) stands inactive: -2.5%.
As to `CP(=O)(Nc1ccc(Cl)cc1)Oc1ccc(F)cc1` (stereo unspecified), the inhibition is inactive: 6.2%.
Take `CN(C)C(=O)c1c([N+](=O)[O-])cc([N+](=O)[O-])cc1[N+](=O)[O-]`: the inhibition is inactive: 11.7%.
Under `COc1ccc(OP(C)(=O)Nc2ccc(Br)cc2)cc1` (stereo unspecified) stands inactive: -4.4%; under `CCN(CC)CC(O)COC(=O)C(O)(c1ccccc1)C1CCCCC1` (stereo unspecified), inactive: 1.2%; under `O=C(OCCCN1CCCC1)C(O)(c1ccccc1)C1CCCCC1` (stereo unspecified), inactive: 5.8%.
Under `COc1ccccc1OP(C)(=O)Nc1c(C)n(C)n(-c2ccccc2)c1=O` (stereo unspecified) stands inactive: -0.8%; under `CCc1ccc(OP(C)(=O)Nc2cccnc2)cc1` (stereo unspecified), inactive: -0.2%; under `CP(=O)(Oc1ccccc1)N1CCOC1=O` (stereo unspecified), inactive: -1.4%.
Under `CCOC(=O)c1ccc(NP(C)(=O)Oc2ccc(Cl)cc2)cc1` (stereo unspecified) stands inactive: -1.6%; under `CP(=O)(OC12CC3CC(CC(C3)C1)C2)OC12CC3CC(CC(C3)C1)C2`, inactive: 0.5%; under `CP(=O)(OCCOc1ccccc1)OCCOc1ccccc1`, inactive: -3.1%.
With `CCCCCCCCCCCCCCCC1C[N+](C)(C)CCOP(C)(=O)O1` (stereo unspecified), the inhibition was inactive: -12.7%.
Regarding `CP(=O)(Nc1ccc(Cl)cc1Cl)Oc1ccccc1` (stereo unspecified), the inhibition was inactive: -0.7%.
With `Cc1cc(C)cc(OP(C)(=O)Nc2cccc(C(F)(F)F)c2)c1` (stereo unspecified) the figure was inactive: -3.5%; with `O=C1C(O)=C([N+](=O)[O-])C(=O)C(O)=C1[N+](=O)[O-]`, inactive: -0.4%.
Under `COc1ccccc1OP(C)(=O)Nc1ccc(C)c(C)c1` (stereo unspecified) stands inactive: -3.8%; under `COc1ccc(OP(C)(=O)Nc2ccccc2Br)cc1` (stereo unspecified), inactive: -2.3%; under `O=[N+]([O-])c1cc([N+](=O)[O-])c(Nc2ccccn2)c([N+](=O)[O-])c1`, inactive: -0.2%.
As to `Cc1c(NP(C)(=O)Oc2ccc(C(C)C)cc2)c(=O)n(-c2ccccc2)n1C` (stereo unspecified), the inhibition was inactive: 1.6%.
With `COc1ccccc1OP(C)(=O)Nc1ccc(C)cc1C` (stereo unspecified) the figure was inactive: 0.3%; with `CP(=O)(Nc1ccccn1)Oc1ccccc1` (stereo unspecified), inactive: -3.1%; with `CCc1ccc(OP(C)(=O)O)cc1`, inactive: -2%.
Under `COc1ccccc1OP(C)(=O)Nc1ccc(Br)cc1` (stereo unspecified) stands inactive: -2.8%.
With `COc1ccc(OP(C)(=O)Nc2ccccn2)cc1` (stereo unspecified), the inhibition is inactive: -1%.
As to `CN(C)CCOC(=O)C(O)(c1ccccc1)C1CCCC1` (stereo unspecified), the inhibition is inactive: -1.5%.
